{"sequences": {"note": "Protein sequences, listed by entry. Tags and fused reporters are not part of them.", "UniProt P02786, whole entry": "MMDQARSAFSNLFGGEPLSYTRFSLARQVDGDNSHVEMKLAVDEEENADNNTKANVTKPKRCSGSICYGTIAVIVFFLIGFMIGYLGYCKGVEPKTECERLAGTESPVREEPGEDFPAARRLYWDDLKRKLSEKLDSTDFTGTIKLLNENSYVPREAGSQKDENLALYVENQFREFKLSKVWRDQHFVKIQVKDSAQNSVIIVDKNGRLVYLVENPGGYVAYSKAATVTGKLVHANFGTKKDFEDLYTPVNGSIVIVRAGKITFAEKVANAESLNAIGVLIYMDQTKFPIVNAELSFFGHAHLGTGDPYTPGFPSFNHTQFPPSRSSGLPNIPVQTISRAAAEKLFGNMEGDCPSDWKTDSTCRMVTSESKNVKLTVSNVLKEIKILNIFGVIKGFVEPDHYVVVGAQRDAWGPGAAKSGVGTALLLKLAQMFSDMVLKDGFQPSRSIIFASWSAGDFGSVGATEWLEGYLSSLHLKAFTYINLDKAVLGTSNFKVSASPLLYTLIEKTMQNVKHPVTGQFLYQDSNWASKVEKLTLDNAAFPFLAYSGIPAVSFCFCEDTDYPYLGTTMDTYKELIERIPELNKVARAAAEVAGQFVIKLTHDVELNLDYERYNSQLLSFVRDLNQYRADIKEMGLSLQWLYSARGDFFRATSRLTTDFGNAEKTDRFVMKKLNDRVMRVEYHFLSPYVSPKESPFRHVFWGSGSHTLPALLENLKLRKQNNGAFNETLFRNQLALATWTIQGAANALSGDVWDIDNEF"}, "source": "paper PMC5549732", "about": "“Fluorescence imaging of bombesin and transferrin receptor expression is comparable to ^18F-FDG PET in early detection of sorafenib-induced changes in tumor metabolism” (PLoS ONE, 2017)", "molecular_target": "T1, transferrin receptor (Homo sapiens, UniProt P02786)", "T1 construct": "endogenous in cells; host or cells: HT-29 human colon cancer cells", "assay": "In vitro selectivity of TfV-750 labeling of HT-29 cells (flow cytometry, fluorescence microscopy)", "type": "cell-based", "conditions": "HT-29 human colorectal cells; 1 μM probe, 1 h at room temperature; flow cytometry and fluorescence microscopy", "method": "The molecular weight of TfV-750 is approximately 106,000 g/mol, with an excitation/emission profile determined as 750/770 nm (S6 Fig). Selectivity was assessed in vitro by flow cytometry and fluorescence microscopy using HT-29 human colorectal cells; fluorescence signal on TfV-750-labeled cells was ~15X greater than when 100 μM unlabeled recombinant transferrin was used to block labeling (S7 Fig). Plasma pharmacokinetics of TfV-750 was assessed in CD-1 mice. Animals were bled at indicated times, and plasma fluorescence was determined using a microplate assay. […] The probe has good tissue penetration into tumors, as its binding pattern in tumor sections (using a 645 nm FLI surrogate to improve microscopy imaging) correlates well with the transferrin receptor expression on cancer cells and is not associated with the tumor vasculature (S10 Fig).\nSupplementary file pone.0182689.s007.tif: S7 Fig Specific binding of TfV-750 to transferrin receptor on cancer cells. A: HT-29 cells (human colon cancer tumor line) were incubated with 1 μM TfV-750 for 1 h at room temperature and assessed by flow cytometry, showing effective uptake in the tumor cells. […] C: Generation of cellular microscopy images required the use of a 645 nm fluorochrome-labeled transferrin to more sensitively detect cellular fluorescence by microscopy. […]"}
{"substance": "TfV-750: PEGylated recombinant transferrin with a NIR fluorescent reporter (ex/em 750/770 nm); transferrin receptor imaging probe", "values": [{"measurement": "fluorescence signal on labeled cells relative to block with 100 μM unlabeled recombinant transferrin", "result": "~ 15 X"}]}
